A short description of series [1]: Moisture-absorption ability measurement employing keratin powder (ground wool). Particulars: keratin powder with sample, 20° C., 79.2% relative humidity, 48 hours; absorbed water per 1 g of keratin powder. The class given is physicochemical. On the procedure:
[Method of Moisture-Absorption Ability Measurement Carried Out by Employing Keratin Powder (Ground Wool)]
Moisture-absorption ability was evaluated by the following criteria.
Moisture-absorption ability rating criteria • ⊚: Amount of absorbed water per 1 g of keratin powder is 0.60 g or more. • ◯: Amount of absorbed water per 1 g of keratin powder is 0.50 g or more and less than 0.60 g • Δ: Amount of absorbed water per 1 g of keratin powder is 0.40 g or more and less than 0.50 g • X: Amount of absorbed water per 1 g of keratin powder is less than 0.40 g [Method of Moisturizing Effect Measurement Carried Out by Employing Keratin Powder (Ground Wool)]

Series [2] can be described thus: Moisturizing effect measurement employing keratin powder (ground wool). The class given is physicochemical. The settings on record: (B/A)×100: water retained after further 6 hours at 20° C., 20.0% relative humidity, relative to water absorbed at 79.2% relative humidity for 48 hours. The protocol: For the constant-humidity bath under 20.0% of relative humidity, saturated aqueous potassium acetate solution was employed.
Moisturizing effect was evaluated by the following criteria,
Moisturizing effect rating criteria • ⊚: 60 or more • ◯: 50 or more and less than 60 • Δ: 40 or more and less than 50 • X: Less than 40

On to “1 sodium N-glycerylaspartate [Glyceryl derivative of aspartic acid]”, for which the Moisture-absorption ability entry in series [1] is listed as “⊚ (Amount of absorbed water per 1 g of keratin powder is 0.60 g or more)”. Besides, the Moisturizing effect result in series [2] is given as “⊚ (60 or more)”.
